The source of these data is US20250145608A1, “KRAS DEGRADING COMPOUNDS COMPRISING ANNULATED 2-AMINO-3-CYANO THIOPHENES” (Boehringer Ingelheim Int'l GmbH Corp., priority 2021, published 2025).

By UniProt entry, the sequences of proteins in these tests, tags left out. Residues count along the entry.
UniProt P01116, 1-188 isoform 2 G12D: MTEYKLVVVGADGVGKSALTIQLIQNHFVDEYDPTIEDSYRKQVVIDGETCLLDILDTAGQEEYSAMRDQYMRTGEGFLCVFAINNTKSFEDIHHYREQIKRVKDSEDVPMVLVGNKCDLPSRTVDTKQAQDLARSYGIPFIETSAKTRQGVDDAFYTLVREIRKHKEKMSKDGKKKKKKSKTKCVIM

The target of the assay is KRAS(G12D) (Homo sapiens, UniProt P01116, G12D). Description: HiBit degradation assay in GP5d-HiBit-KRAS(G12D) cells (18 h; DC50, Dmax). (The HiBiT peptide binds its large partner to form an active luciferase.)

A word on the DC50: it is the concentration at which degradation of the target reaches its halfway point.

Take `Cc1ncsc1-c1ccc([C@@H](NC(=O)[C@@H]2C[C@@H](O)CN2C(=O)C(C(C)C)n2cc(OCCCCN3CCCN(c4nccc(-c5noc([C@@]6(C)CCCc7sc(N)c(C#N)c76)n5)n4)[C@@H](C)C3)nn2)C(=O)O)cc1` (some centres unmarked): the “Dmax 18 h” value is 83 % Ctrl. Where the note is “read-out: DC50 18 h”, the DC50 was found to be 739 nM.
